Reference: patent US20250367268A1, “Compositions and Methods for Treating Internal Bleeding and Hemorrhage” (priority 2024, published 2025)

Tested on: Trauma and 27 ml/kg hemorrhagic shock
Assay: Second albumin study: trauma and 27 ml/kg hemorrhagic shock model, albumin bolus then crystalloid as needed
Assay type: in vivo
Details: FIG. 2 and FIG. 3
Experimental: Two studies of resuscitation by albumin after hemorrhage were performed. In the first study, resuscitation by a crystalloid (control) was compared to resuscitation with either a bolus of bovine serum albumin (BSA) saturated with oleic acid (OA-BSA) or a bolus of NEFA-free albumin, followed by crystalloid, as needed. As commercially available pharmaceutical grade albumin is human albumin (HSA) that is nearly saturated with caprylic acid, instead of oleic acid, in the second study OA-BSA, caprylic acid-saturated BSA (CA-BSA), and pharmaceutical grade human serum albumin (HSA) were compared. A crystalloid-only group (“Crystalloid Only Group”) was also run as a control. Note that HSA is usually 1.2% caprylic acid by weight of albumin plus an additional approximate 0.14% by weight of albumin of assorted NEFAs originating from the donor, for a total of approximately 1.34% NEFA by weight of albumin. […]
The facility's Institutional Animal Care and Use Committee (IACUC) approved all research conducted in this study. […] Core temperature was maintained (36-37° C.) using a heating pad and monitored with a rectal probe (Physitemp, Clifton, NJ). […]

## HSA: pharmaceutical grade human serum albumin, 25% HSA from Grifols, nearly saturated with caprylic acid
  loss of protein from the circulation (plasma/total protein T2 to T4): significant drop
